Experimental data taken from ChEMBL document CHEMBL1145133, “Thienyl and phenyl alpha-halomethyl ketones: new inhibitors of glycogen synthase kinase (GSK-3beta) from a library of compound searching” (J Med Chem, 2003).

The chains behind the UniProt entries cited, without tags or fusion partners. Where a name states a change or a piece, a line headed by the entry shows the natural chain unless it says otherwise.
UniProt P49841: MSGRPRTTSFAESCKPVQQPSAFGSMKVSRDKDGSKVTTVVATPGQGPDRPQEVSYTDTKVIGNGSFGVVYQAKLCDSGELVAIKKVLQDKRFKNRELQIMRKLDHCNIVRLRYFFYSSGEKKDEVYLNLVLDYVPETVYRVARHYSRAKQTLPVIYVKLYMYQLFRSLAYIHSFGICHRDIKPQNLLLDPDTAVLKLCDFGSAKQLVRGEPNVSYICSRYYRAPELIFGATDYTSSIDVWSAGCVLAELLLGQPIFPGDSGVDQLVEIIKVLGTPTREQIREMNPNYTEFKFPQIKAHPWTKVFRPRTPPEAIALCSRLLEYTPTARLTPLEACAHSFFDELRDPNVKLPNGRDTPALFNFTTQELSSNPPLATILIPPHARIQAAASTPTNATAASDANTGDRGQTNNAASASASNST

Key:
[1] = target: Glycogen synthase kinase-3 beta (Homo sapiens, UniProt P49841); test: Inhibitory activity against glycogen synthase kinase-3 (GSK-3beta).
[2] = target: cAMP-dependent protein kinase (PKA) (Homo sapiens, UniProt P22694+P17612+P22612); test: Inhibitory activity against protein kinase A (PKA ); type: protein assay

`O=C(CBr)c1ccc([N+](=O)[O-])cc1` showed an IC50 [1] of 2000 nM.
`Cc1ccc(C(=O)CBr)cc1` gave an IC50 [1] of 2500 nM and an IC50 [2] of over 100000 nM.
`COc1ccc(C(=O)CBr)cc1` showed an IC50 [1] of 1000 nM and an IC50 [2] of over 100000 nM.
In the case of `O=C(CBr)c1ccc(Cl)cc1`, the IC50 [1] is reported as 1000 nM and the IC50 [2] is reported as over 100000 nM.
